The text below walks through data of patent publication US20250230193A1, “CYCLIC COMPOUND HAVING SELECTIVE KRAS INHIBITORY EFFECT ON HRAS AND NRAS” (CHUGAI SEIYAKU KABUSHIKI KAISHA, priority 2022, published 2025).

Chains of the proteins cited; added tags and fusions are not shown.
UniProt P01116, whole entry: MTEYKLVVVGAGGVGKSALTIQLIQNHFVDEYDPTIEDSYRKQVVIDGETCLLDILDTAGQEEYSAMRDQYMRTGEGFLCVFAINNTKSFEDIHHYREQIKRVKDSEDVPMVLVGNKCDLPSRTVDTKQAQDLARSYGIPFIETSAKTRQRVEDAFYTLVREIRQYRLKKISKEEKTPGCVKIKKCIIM
UniProt P01111, whole entry: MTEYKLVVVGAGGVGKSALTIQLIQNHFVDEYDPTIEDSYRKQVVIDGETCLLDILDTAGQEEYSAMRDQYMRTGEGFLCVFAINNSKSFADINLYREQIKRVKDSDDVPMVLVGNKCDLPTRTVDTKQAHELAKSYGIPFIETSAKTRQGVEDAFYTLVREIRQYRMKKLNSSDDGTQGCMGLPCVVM
UniProt P01112, whole entry: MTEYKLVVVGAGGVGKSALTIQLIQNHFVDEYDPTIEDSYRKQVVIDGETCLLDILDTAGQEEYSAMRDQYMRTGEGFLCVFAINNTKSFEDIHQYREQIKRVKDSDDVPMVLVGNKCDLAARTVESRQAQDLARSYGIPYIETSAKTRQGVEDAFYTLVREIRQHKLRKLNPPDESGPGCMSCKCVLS

For assay [1], the system named is human lung cancer strain NCI-H441. The assay can be described thus: NCI-H441 cell proliferation inhibitory activity (CellTiter-Glo, 4 days). Format: cell-based. As to conditions: read-out: NCI-H441 IC50, NCI-H441 cells.
Assay [2] deals with GDP-bound KRAS wild-type protein (Homo sapiens, UniProt P01116). Briefly: Binding to KRAS by surface plasmon resonance (SPR), Single Cycle Kinetics. As to conditions: read-out: KRAS KD.
Assay [3] has as its target GDP-bound NRAS wild-type protein (Homo sapiens, UniProt P01111). The assay can be described thus: Binding to NRAS by surface plasmon resonance (SPR), Single Cycle Kinetics. Particulars: KD ratio class. For orientation: Surface plasmon resonance follows binding to a sensor surface in real time, without labels.
The target in assay [4] is GDP-bound HRAS wild-type protein (Homo sapiens, UniProt P01112). Briefly: Binding to HRAS by surface plasmon resonance (SPR), Single Cycle Kinetics. As to conditions: KD ratio class.

As to `CCO[C@@H]1C[C@H]2C(=O)NC3(CC(C)(C)C3)C(=O)N(C)[C@@H](C(CC)CC)C(=O)N(C)[C@H](C(C)C)CC(=O)N(C)[C@@H](CC)C(=O)N[C@@H]([C@@H](C)CC)C(=O)N(C)CC(=O)N(C)[C@H]3C/C=C\CCN(C3=O)[C@@H](Cc3ccc(C(F)(F)F)cc3)C(=O)N(C)CC(=O)N[C@@H](CCc3cc(F)c(C(F)(F)F)c(F)c3)C(=O)N2C1`, in assay [1], the IC50 (in general, the concentration needed to halve the response being measured) was found to be 106 nM. Consider `CCO[C@@H]1C[C@H]2C(=O)NC3(CCC3)C(=O)N(C)[C@@H](C(CC)CC)C(=O)N(C)[C@H](C3CCCCC3)CC(=O)N(C)[C@@H](COC)C(=O)N[C@@H]([C@@H](C)CC)C(=O)N(C)CC(=O)N(C)[C@H]3C/C=C\CCN(C3=O)[C@@H](Cc3ccc(C(F)(F)F)cc3)C(=O)N(C)CC(=O)N[C@@H](CCc3cc(F)c(C(F)(F)F)c(F)c3)C(=O)N2C1`, for which the IC50 in assay [1] was found to be 45.7 nM. The same measure, in the same setting: next, `CCO[C@@H]1C[C@H]2C(=O)NC3(CCC3)C(=O)N(C)[C@@H](C3CCCC3)C(=O)N(C)[C@H](C(C)C)CC(=O)N(C)[C@@H](CC)C(=O)N[C@@H]([C@@H](C)CC)C(=O)N(C)CC(=O)N(C)[C@H]3C/C=C\CCN(C3=O)[C@@H](Cc3ccc(C(F)(F)F)cc3)C(=O)N(C)CC(=O)N[C@@H](CCc3ccc(C(F)(F)F)c(OC)c3)C(=O)N2C1`: 13.8 nM. On to `CCCCCC[C@H]1C(=O)N[C@@H]([C@@H](C)CC)C(=O)N(C)CC(=O)N(C)[C@H]2C/C=C\CCN(C2=O)[C@@H](Cc2ccc(C(F)(F)F)cc2)C(=O)N(C)CC(=O)N[C@@H](CCc2ccc(C(F)(F)F)c(OC)c2)C(=O)N2C[C@H](OCC)C[C@H]2C(=O)NC2(CCC2)C(=O)N(C)[C@@H](C(CC)CC)C(=O)N(C)[C@H](C(=O)N(C)C)CC(=O)N1C`, for which the Kd (in general, the free concentration of one partner at which half of the binding sites on the other are occupied at equilibrium, for simple one-to-one binding) in assay [2] came out at 0.4 nM. For the same compound, the “NRAS/KRAS (ratio of KD value for GDP-bound NRAS wild-type protein to KD value for KRAS)” value in assay [3] is on record as “AA (a compound having 20 or more is denoted as AA)”. Also, in assay [4], the “HRAS/KRAS (ratio of KD value for GDP-bound HRAS wild-type protein to KD value for KRAS)” value was “A (a compound having 10 or more and less than 20 is denoted as A)”. In addition, the IC50 in assay [1] was found to be 44.3 nM.

Consider `CCO[C@@H]1C[C@H]2C(=O)NC3(CCC3)C(=O)N(C)[C@@H](C(CC)CC)C(=O)N(C)[C@H](C(=O)N(C)C)CC(=O)N(C)[C@@H](CC3CCCC3)C(=O)N[C@@H]([C@@H](C)CC)C(=O)N(C)CC(=O)N(C)[C@H]3C/C=C\CCN(C3=O)[C@@H](Cc3ccc(C(F)(F)F)cc3)C(=O)N(C)CC(=O)N[C@@H](CCc3cc(F)c(C(F)(F)F)c(F)c3)C(=O)N2C1`, for which, in assay [2], the Kd is 0.24 nM. Also, the “NRAS/KRAS (ratio of KD value for GDP-bound NRAS wild-type protein to KD value for KRAS)” value in assay [3] was “AA (a compound having 20 or more is denoted as AA)”. In addition, the “HRAS/KRAS (ratio of KD value for GDP-bound HRAS wild-type protein to KD value for KRAS)” value in assay [4] was “A (a compound having 10 or more and less than 20 is denoted as A)”. Further, in assay [1], the IC50 worked out at 23.4 nM. `CCO[C@@H]1C[C@H]2C(=O)NC3(CC(C)(C)C3)C(=O)N(C)[C@@H](C3CCCC3)C(=O)N(C)[C@H](C3CCCCC3)CC(=O)N(C)[C@@H](COC)C(=O)N[C@@H]([C@@H](C)CC)C(=O)N(C)CC(=O)N(C)[C@H]3C/C=C\CCN(C3=O)[C@@H](Cc3ccc(C(F)(F)F)cc3)C(=O)N(C)CC(=O)N[C@@H](CCc3cc(F)c(C(F)(F)F)c(F)c3)C(=O)N2C1`: the IC50 in assay [1] was found to be 27.4 nM. As to `CCO[C@@H]1C[C@H]2C(=O)NC3(CCC3)C(=O)N(C)[C@@H](C3CCCC3)C(=O)N(C)[C@H](C(=O)N(C)C)CC(=O)N(C)[C@@H](CC3CCCC3)C(=O)N[C@@H]([C@@H](C)CC)C(=O)N(C)CC(=O)N(C)[C@H]3C/C=C\CCN(C3=O)[C@@H](Cc3ccc(F)cc3)C(=O)N(C)CC(=O)N[C@@H](CCc3cc(F)c(C(F)(F)F)c(F)c3)C(=O)N2C1`, the “NRAS/KRAS (ratio of KD value for GDP-bound NRAS wild-type protein to KD value for KRAS)” value in assay [3] is “A (a compound having 10 or more and less than 20 is denoted as A)”. In assay [4], the “HRAS/KRAS (ratio of KD value for GDP-bound HRAS wild-type protein to KD value for KRAS)” value was “B (a compound having 3 or more and less than 10 is denoted as B)”. In the case of `CCO[C@@H]1C[C@H]2C(=O)NC3(CCC3)C(=O)N(C)[C@@H](C3CCCC3)C(=O)N(C)[C@H](C)CC(=O)N(C)[C@@H](CC3CCCC3)C(=O)N[C@@H]([C@@H](C)CC)C(=O)N(C)CC(=O)N(C)[C@H]3C/C=C\CCN(C3=O)[C@@H](Cc3ccc(F)cc3C)C(=O)N(C)CC(=O)N[C@@H](CCc3cc(F)c(C(F)(F)F)c(F)c3)C(=O)N2C1`, the half-inhibitory concentration (IC50) in assay [1] was found to be 198 nM. With `CCO[C@@H]1C[C@H]2C(=O)NC3(CCC3)C(=O)N(C)[C@@H](C3CCCC3)C(=O)N(C)[C@H](C(=O)N3CCOCC3)CC(=O)N(C)[C@@H](CC)C(=O)N[C@@H]([C@@H](C)CC)C(=O)N(C)CC(=O)N(C)[C@H]3C/C=C\CCN(C3=O)[C@@H](Cc3ccc(C(F)(F)F)cc3)C(=O)N(C)CC(=O)N[C@@H](CCc3ccc(C(F)(F)F)c(Cl)c3)C(=O)N2C1`, the “NRAS/KRAS (ratio of KD value for GDP-bound NRAS wild-type protein to KD value for KRAS)” value in assay [3] is “AA (a compound having 20 or more is denoted as AA)”. The “HRAS/KRAS (ratio of KD value for GDP-bound HRAS wild-type protein to KD value for KRAS)” value in assay [4] is “A (a compound having 10 or more and less than 20 is denoted as A)”. For the compound `CCC[C@H]1C(=O)N[C@@H]([C@@H](C)CC)C(=O)N(C)CC(=O)N(C)[C@H]2C/C=C\CCN(C2=O)[C@@H](Cc2ccc(C(F)(F)F)cc2)C(=O)N(C)CC(=O)N[C@@H](CCc2cc(F)c(C(F)(F)F)c(F)c2)C(=O)N2C[C@H](OCC)C[C@H]2C(=O)NC2(CCC2)C(=O)N(C)[C@@H](C(CC)CC)C(=O)N(C)[C@H](C(=O)N(C)C)CC(=O)N1C`, the “NRAS/KRAS (ratio of KD value for GDP-bound NRAS wild-type protein to KD value for KRAS)” value in assay [3] is recorded as “AA (a compound having 20 or more is denoted as AA)”. Further, the “HRAS/KRAS (ratio of KD value for GDP-bound HRAS wild-type protein to KD value for KRAS)” value in assay [4] is “A (a compound having 10 or more and less than 20 is denoted as A)”. As for `CC[C@H](C)[C@@H]1NC(=O)[C@H](CC2CCCC2)N(C)C(=O)C[C@@H](C(=O)N(C)C)N(C)C(=O)[C@H](C2CCCC2)N(C)C(=O)C2(CCC2)NC(=O)[C@@H]2C[C@@H](C(F)(F)F)CN2C(=O)[C@H](CCc2cc(F)c(C(F)(F)F)c(F)c2)NC(=O)CN(C)C(=O)[C@H](Cc2ccc(C(F)(F)F)cc2)N2CC/C=C\C[C@@H](C2=O)N(C)C(=O)CN(C)C1=O`, the “NRAS/KRAS (ratio of KD value for GDP-bound NRAS wild-type protein to KD value for KRAS)” value in assay [3] is “A (a compound having 10 or more and less than 20 is denoted as A)”. Besides, the “HRAS/KRAS (ratio of KD value for GDP-bound HRAS wild-type protein to KD value for KRAS)” value in assay [4] is “A (a compound having 10 or more and less than 20 is denoted as A)”.
